In ChEMBL document CHEMBL4138235, “Discovery of aliphatic-chain hydroxamates containing indole derivatives with potent class I histone deacetylase inhibitory activities” (Eur J Med Chem, 2018):

Molecular target: T1, Histone deacetylase 8 (Homo sapiens, UniProt Q9BY41)
T1 sequence (Q9BY41 whole entry): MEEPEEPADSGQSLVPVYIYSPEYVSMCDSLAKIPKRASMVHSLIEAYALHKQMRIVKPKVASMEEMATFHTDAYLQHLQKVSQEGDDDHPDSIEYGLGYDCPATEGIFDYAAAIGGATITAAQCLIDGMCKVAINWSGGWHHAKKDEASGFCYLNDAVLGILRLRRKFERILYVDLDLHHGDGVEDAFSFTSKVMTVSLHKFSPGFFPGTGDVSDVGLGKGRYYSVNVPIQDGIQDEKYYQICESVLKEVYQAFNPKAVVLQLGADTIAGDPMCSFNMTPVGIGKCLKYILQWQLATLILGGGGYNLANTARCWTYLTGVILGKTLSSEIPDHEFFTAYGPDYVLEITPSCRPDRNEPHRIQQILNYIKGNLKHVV
Test: Inhibition of C-terminal His-tagged recombinant human HDAC8 (1 to 377 residues) expressed in baculovirus infected Sf9 insect cells using Boc-Lys(TFA)-AMC as substrate preincubated for 5 mins followed by substrate addition measured after 30 mins by fluorescence assay

IC50: 3.4 µM
SMILES: O=C(CCCCCCC(=O)Nc1ccccc1)NO [VORINOSTAT]
